In US12433911B2, “Preparation and storage of liposomal RNA formulations suitable for therapy” (BIONTECH SE, priority 2019, dated 2025):

Legend:
[1] = RNA integrity of RNA lipoplexes under stress conditions (40° C.), capillary electrophoresis; conditions: 21 days, absence of cryoprotectant, by buffering system
[2] = Buffer, pH, NaCl and sucrose stability studies at +25° C. and −15° C. (PCS, pH, capillary electrophoresis)
Procedure: RNA lipoplexes are incubated under accelerated conditions (25° C.) in the presence of an exemplarily cryoprotectant. RNA integrity was analyzed by capillary electrophoresis over 60 days. Additionally, RNA lipoplexes are incubated under at the anticipated storage conditions (−15° C.) in the presence of an exemplarily cryoprotectant for up to two years. RNA integrity was analyzed by capillary electrophoresis.
The respective RNA lipoplexes were investigated under accelerated conditions (25° C.) and in the frozen state (−15° C.).
RNA lipoplexes were formed with liposomes containing 2 mM of acetic acid. The respective RNA lipoplexes were investigated under accelerated conditions (25° C.) and in the frozen state (−15° C.).
Method: All RNA lipoplexes were automatically prepared in a single batch and the different concentrations of HEPES were adjusted by the addition of a cryoprotectant solution containing different amounts of HEPES. Particle sizes and polydispersity of RNA lipolexes were analyzed by photon correlation spectroscopy (PCS) measurements. Additionally, the RNA integrity was analyzed by capillary electrophoresis and the pH was measured.
In the following study, the concentration of HEPES which is required for stabilization of the pH of the RNA lipoplexes was investigated. […]

acetic acid/sodium acetate
stabilization of the RNA (RNA integrity) [1]: comparable results | stability of the RNA in RNA lipoplexes ([2]; Example 2.1, accelerated conditions (25°)): lower stability | preservation of the particle size and the polydispersity ([2]; Example 2.1, frozen state (−15° C.)): equally suited
